# Assays:
# in vivo [1] = conditions: mouse, intracerebral, fixed volumes of various concentrations, seven day observation, meglumine salt, read-out: LD50 of Meglumine Salt, Intracerebral (Mice)
# Description: (§1) The techniques utilized are outlined below.
# II. Intracerebral Toxicity in Mice
# Swiss Albino mice (Charles River) were used. […] The animals were observed immediately after injections and daily throughout a seven day observation period.
# in vivo [2] = conditions: rat, intracisternal, two day observation, meglumine salt, read-out: LD50 of Meglumine Salt, Intracisternal (Rats)
# Description: as §1
# III. Intracisternal Toxicity in Rats
# Sprague Dawley (Carworth) rats were used. […] After dosing, the animals were housed individually, and observed for immediate reactions and periodically for a two day observation period.
structure (smiles),measurement,setting,value
"CNC(=O)c1c(I)c(NC(C)=O)c(I)c(C(=O)O)c1I [Iothalamic Acid, 5-acetamido-2,4,6-triiodo-N-methylisophthalamic acid]",LD50 at 168 h,in vivo [1],280 mg/kg
same,LD50 at 48 h,in vivo [2],86 mg/kg

# — patent US3953497A, “2,4,6-Triiodo-5-methoxyacetamido-N-methylisophthalamic acid and salts, acyl halides and esters thereof” (Mallinckrodt, Inc., priority 1974, dated 1976)
